{
  "sequences": {"note": "Chains of the proteins cited; added tags and fusions are not shown.", "UniProt Q16539, whole entry": "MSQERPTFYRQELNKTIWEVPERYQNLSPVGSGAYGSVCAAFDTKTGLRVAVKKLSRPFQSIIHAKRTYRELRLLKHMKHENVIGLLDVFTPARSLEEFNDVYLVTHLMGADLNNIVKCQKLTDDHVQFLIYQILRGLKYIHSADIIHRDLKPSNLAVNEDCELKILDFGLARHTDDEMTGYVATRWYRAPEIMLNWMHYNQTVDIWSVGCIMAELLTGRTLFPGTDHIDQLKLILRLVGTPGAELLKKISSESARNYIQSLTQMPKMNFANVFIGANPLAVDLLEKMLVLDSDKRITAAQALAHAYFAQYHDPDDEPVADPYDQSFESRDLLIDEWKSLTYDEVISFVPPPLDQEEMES"},
  "source": "patent US20060258582A1",
  "about": "“Method of treating myelodysplastic syndromes” (Scios, Inc., priority 2004, published 2006)",
  "origin": "cited, not measured here",
  "molecular_target": "p38 MAPK (Homo sapiens, UniProt Q16539)",
  "settings": "previous studies; pharmacological inhibition of p38 MAPK; cited from earlier work",
  "data": [
    {"compound": "Oc1ccc(-c2nc(-c3ccc(F)cc3)c(-c3ccncc3)[nH]2)cc1", "note": "[SB 202190]", "values": [
      {"measurement": "myelosuppresion caused by IFN and TGF β", "result": "able to reverse"}
    ]}
  ]
}
